Experimental data reported in patent US20130302888A1, “CELL CULTURE METHOD AND SYSTEM FOR ESTABLISHING AN IN VITRO MODEL OF THE INTESTINAL BARRIER” (GATTEFOSSE SAS, priority 2011, published 2013).

Columns and labels:
[1] = tested on: HT29-MTX monolayer
[2] = tested on: Caco-2 monolayer

Papp [1]: 3 10^−6 cm/s
Papp [2]: 19 10^−6 cm/s
Substance: rhodamine 123 [Rho123]
